Where “and” joins values, the source holds several entries; their conditions need not be identical. Equal values may be shown once.
Molecular target: Histamine H1 receptor (Homo sapiens, UniProt P35367)

Protein sequences, listed by entry. Tags and fused reporters are not part of them.
UniProt P35367, whole entry: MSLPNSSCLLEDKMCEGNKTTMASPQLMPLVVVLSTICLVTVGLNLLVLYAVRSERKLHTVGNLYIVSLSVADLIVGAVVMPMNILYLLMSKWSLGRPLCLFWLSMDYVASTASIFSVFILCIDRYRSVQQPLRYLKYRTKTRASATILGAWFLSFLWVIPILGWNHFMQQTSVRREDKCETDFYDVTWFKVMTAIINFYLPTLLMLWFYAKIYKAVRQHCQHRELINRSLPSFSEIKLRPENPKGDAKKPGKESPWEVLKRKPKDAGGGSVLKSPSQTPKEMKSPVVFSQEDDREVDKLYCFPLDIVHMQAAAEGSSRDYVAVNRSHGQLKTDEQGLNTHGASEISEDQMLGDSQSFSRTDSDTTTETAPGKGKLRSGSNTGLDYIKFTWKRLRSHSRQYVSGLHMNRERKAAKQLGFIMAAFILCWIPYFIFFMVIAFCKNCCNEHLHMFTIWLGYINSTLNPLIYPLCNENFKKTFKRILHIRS

`CN1CCN(C2=c3ccccc3=Nc3ccc(Cl)cc3N2)CC1` [6-chloro-10-(4-methylpiperazin-1-yl)-2,9-diazatricyclo[9.4.0.0^{3,8}]pentadeca-1,3(8),4,6,10,12,14-heptaene] was tested, and the Ki was 1.63 nM and 1.54 nM.

— BindingDB's records for doi:10.1124/jpet.302.1.328 (University of North Carolina at Chapel Hill, 2002)
